Measurements as given in ChEMBL document CHEMBL5316381, “Discovery of [1,2,3]Triazolo[4,5-c]quinoline Derivatives as a New Class of Ataxia-Telangiectasia Mutated Kinase Inhibitors” (ACS Med Chem Lett, 2023).

The chains behind the UniProt entries cited, without tags or fusion partners. Where a name states a change or a piece, a line headed by the entry shows the natural chain unless it says otherwise.
UniProt Q13315: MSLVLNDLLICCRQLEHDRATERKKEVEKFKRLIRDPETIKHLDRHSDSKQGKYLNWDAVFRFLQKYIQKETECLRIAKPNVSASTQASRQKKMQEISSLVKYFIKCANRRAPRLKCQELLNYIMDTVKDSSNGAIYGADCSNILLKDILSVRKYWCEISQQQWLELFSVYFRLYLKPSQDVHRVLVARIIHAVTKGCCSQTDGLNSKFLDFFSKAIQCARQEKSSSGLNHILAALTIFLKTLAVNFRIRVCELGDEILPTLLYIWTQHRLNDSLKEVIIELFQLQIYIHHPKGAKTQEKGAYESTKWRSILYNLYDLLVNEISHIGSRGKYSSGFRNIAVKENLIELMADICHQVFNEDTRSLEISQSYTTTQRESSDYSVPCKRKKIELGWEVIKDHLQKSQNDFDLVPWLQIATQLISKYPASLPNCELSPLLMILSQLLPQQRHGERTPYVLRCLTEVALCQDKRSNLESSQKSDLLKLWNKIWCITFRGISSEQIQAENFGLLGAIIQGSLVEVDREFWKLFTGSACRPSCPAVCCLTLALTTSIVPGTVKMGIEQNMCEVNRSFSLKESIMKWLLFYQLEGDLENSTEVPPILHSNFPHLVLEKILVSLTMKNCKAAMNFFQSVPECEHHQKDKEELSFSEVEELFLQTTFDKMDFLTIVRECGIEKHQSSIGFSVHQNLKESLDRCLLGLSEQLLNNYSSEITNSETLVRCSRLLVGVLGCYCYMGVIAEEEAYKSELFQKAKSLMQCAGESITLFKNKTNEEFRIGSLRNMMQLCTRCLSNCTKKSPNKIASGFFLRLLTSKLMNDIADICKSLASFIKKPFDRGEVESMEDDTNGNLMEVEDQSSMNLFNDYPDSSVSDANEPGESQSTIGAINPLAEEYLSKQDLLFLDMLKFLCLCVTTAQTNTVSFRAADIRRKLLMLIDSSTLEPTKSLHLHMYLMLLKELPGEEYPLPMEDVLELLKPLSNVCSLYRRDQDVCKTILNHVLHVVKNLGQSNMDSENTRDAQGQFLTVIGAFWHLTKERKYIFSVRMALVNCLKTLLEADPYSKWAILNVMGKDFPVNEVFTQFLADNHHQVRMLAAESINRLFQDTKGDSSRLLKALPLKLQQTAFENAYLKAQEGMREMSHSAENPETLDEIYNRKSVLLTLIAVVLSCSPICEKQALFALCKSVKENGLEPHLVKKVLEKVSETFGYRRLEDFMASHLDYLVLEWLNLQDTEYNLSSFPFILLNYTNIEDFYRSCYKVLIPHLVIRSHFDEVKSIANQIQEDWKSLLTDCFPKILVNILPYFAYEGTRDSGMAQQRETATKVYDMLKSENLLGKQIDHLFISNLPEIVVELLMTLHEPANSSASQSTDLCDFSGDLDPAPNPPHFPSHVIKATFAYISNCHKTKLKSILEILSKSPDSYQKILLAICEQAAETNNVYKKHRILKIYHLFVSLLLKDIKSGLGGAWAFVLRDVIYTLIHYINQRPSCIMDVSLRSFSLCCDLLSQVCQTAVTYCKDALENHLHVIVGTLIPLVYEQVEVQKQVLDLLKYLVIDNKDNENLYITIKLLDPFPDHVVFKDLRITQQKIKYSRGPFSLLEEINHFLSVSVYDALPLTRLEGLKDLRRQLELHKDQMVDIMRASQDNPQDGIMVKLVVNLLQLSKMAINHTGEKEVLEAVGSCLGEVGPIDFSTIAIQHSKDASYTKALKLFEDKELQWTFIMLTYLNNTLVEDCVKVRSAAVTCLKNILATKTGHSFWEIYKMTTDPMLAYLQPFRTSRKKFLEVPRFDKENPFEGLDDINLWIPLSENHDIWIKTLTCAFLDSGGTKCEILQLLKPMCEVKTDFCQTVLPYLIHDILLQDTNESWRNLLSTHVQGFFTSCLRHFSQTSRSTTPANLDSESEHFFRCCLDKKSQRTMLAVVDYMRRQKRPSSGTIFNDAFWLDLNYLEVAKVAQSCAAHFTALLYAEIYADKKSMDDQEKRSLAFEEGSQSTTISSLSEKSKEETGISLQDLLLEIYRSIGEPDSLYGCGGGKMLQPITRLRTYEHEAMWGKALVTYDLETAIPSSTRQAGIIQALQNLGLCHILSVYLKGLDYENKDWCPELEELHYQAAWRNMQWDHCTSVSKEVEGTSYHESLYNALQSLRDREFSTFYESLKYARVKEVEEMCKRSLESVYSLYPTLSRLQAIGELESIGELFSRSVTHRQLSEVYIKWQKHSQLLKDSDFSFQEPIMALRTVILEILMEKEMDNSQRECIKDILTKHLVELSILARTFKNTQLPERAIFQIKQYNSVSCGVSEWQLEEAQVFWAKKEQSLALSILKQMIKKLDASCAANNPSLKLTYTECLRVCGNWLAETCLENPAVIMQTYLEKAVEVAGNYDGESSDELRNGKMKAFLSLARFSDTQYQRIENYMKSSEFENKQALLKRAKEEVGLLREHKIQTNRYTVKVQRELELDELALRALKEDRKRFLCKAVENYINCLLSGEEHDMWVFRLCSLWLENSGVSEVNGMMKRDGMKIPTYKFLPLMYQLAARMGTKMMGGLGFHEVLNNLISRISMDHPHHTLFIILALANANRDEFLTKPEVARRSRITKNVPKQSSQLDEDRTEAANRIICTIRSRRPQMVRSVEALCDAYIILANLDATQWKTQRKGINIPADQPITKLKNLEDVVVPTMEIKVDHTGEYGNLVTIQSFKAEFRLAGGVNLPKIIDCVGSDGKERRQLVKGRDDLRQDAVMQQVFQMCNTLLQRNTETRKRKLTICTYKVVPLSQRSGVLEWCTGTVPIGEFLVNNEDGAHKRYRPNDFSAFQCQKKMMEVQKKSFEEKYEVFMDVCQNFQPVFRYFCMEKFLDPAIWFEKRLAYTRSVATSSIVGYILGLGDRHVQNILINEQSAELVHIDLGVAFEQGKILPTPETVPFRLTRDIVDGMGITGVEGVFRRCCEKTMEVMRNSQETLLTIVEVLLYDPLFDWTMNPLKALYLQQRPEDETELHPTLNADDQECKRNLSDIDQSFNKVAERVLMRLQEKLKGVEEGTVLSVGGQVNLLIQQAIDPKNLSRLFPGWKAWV
UniProt O96017, whole entry: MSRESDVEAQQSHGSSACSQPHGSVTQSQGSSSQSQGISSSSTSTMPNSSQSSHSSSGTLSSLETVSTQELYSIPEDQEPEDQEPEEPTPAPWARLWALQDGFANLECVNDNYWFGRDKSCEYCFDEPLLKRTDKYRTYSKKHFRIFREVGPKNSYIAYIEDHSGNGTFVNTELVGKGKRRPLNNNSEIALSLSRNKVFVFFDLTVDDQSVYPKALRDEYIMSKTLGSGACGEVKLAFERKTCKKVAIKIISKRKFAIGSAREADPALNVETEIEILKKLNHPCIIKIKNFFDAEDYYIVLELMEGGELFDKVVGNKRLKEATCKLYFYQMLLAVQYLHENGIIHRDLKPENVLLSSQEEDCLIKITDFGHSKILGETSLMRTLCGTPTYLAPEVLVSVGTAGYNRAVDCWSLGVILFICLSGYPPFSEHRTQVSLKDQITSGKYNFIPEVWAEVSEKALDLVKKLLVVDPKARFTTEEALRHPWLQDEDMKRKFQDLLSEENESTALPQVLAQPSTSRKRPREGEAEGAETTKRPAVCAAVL

Legend:
Format in all cases: cell-based
[1] = molecular target: T1, Serine-protein kinase ATM (Homo sapiens, UniProt Q13315); assay: Inhibition of ATM phosphorylation in human SW620 cells with IR-induced DNA damage assessed as fold change in phosphorylated ATM protein level at 27 nM in the presence of 3 Gy irradiation by Western blot analysis relative to control
[2] = molecular target: Serine/threonine-protein kinase Chk2 (Homo sapiens) (UniProt O96017); assay: Inhibition of CPT-11 induced Chk2 phosphorylation in human SW620 cells assessed as fold change in phosphorylated chk2 protein level at 3 nM by SDS-PAGE based Western blot analysis relative to control
[3] = molecular target: T1, Serine-protein kinase ATM; assay: Inhibition of ATM phosphorylation in human SW620 cells with IR-induced DNA damage assessed as fold change in phosphorylated ATM protein level at 83 nM in the presence of 3 Gy irradiation by Western blot analysis relative to control
[4] = molecular target: Serine/threonine-protein kinase Chk2 (Homo sapiens) (UniProt O96017); assay: Inhibition of Chk2 phosphorylation in human SW620 cells with IR-induced DNA damage assessed as fold change in phosphorylated Chk2 protein level at 3 nM in the presence of 3 Gy irradiation by Western blot analysis relative to control
[5] = molecular target: T1, Serine-protein kinase ATM; assay: Inhibition of ATM phosphorylation in human SW620 cells with IR-induced DNA damage assessed as fold change in phosphorylated ATM protein level at 9 nM in the presence of 3 Gy irradiation by Western blot analysis relative to control
[6] = molecular target: Serine/threonine-protein kinase Chk2 (Homo sapiens) (UniProt O96017); assay: Inhibition of CPT-11 induced Chk2 phosphorylation in human SW620 cells assessed as fold change in phosphorylated chk2 protein level at 30 nM by SDS-PAGE based Western blot analysis relative to control
[7] = molecular target: Serine/threonine-protein kinase Chk2 (Homo sapiens) (UniProt O96017); assay: Inhibition of CPT-11 induced Chk2 phosphorylation in human SW620 cells assessed as fold change in phosphorylated chk2 protein level at 1 nM by SDS-PAGE based Western blot analysis relative to control
[8] = molecular target: Serine/threonine-protein kinase Chk2 (Homo sapiens) (UniProt O96017); assay: Inhibition of Chk2 phosphorylation in human SW620 cells with IR-induced DNA damage assessed as fold change in phosphorylated Chk2 protein level at 27 nM in the presence of 1.5 Gy irradiation by Western blot analysis relative to control
[9] = molecular target: Serine/threonine-protein kinase Chk2 (Homo sapiens) (UniProt O96017); assay: Inhibition of Chk2 phosphorylation in human SW620 cells with IR-induced DNA damage assessed as fold change in phosphorylated Chk2 protein level at 83 nM in the presence of 3 Gy irradiation by Western blot analysis relative to control
[10] = molecular target: Serine/threonine-protein kinase Chk2 (Homo sapiens) (UniProt O96017); assay: Inhibition of Chk2 phosphorylation in human SW620 cells with IR-induced DNA damage assessed as fold change in phosphorylated Chk2 protein level at 9 nM in the presence of 3 Gy irradiation by Western blot analysis relative to control
[11] = molecular target: Serine/threonine-protein kinase Chk2 (Homo sapiens) (UniProt O96017); assay: Inhibition of Chk2 phosphorylation in human SW620 cells with IR-induced DNA damage assessed as fold change in phosphorylated Chk2 protein level at 250 nM in the presence of 3 Gy irradiation by Western blot analysis relative to control
[12] = molecular target: T1, Serine-protein kinase ATM; assay: Inhibition of ATM phosphorylation in human SW620 cells with IR-induced DNA damage assessed as fold change in phosphorylated ATM protein level at 250 nM in the presence of 3 Gy irradiation by Western blot analysis relative to control
[13] = molecular target: Serine/threonine-protein kinase Chk2 (Homo sapiens) (UniProt O96017); assay: Inhibition of Chk2 phosphorylation in human SW620 cells with IR-induced DNA damage assessed as fold change in phosphorylated Chk2 protein level at 27 nM in the presence of 3 Gy irradiation by Western blot analysis relative to control
[14] = molecular target: Serine/threonine-protein kinase Chk2 (Homo sapiens) (UniProt O96017); assay: Inhibition of Chk2 phosphorylation in human SW620 cells with IR-induced DNA damage assessed as fold change in phosphorylated Chk2 protein level at 250 nM in the presence of 1.5 Gy irradiation by Western blot analysis relative to control
[15] = molecular target: Serine/threonine-protein kinase Chk2 (Homo sapiens) (UniProt O96017); assay: Inhibition of Chk2 phosphorylation in human SW620 cells with IR-induced DNA damage assessed as fold change in phosphorylated Chk2 protein level at 3 nM in the presence of 1.5 Gy irradiation by Western blot analysis relative to control
[16] = molecular target: Serine/threonine-protein kinase Chk2 (Homo sapiens) (UniProt O96017); assay: Inhibition of Chk2 phosphorylation in human SW620 cells with IR-induced DNA damage assessed as fold change in phosphorylated Chk2 protein level at 9 nM in the presence of 1.5 Gy irradiation by Western blot analysis relative to control
[17] = molecular target: Serine/threonine-protein kinase Chk2 (Homo sapiens) (UniProt O96017); assay: Inhibition of Chk2 phosphorylation in human SW620 cells with IR-induced DNA damage assessed as fold change in phosphorylated Chk2 protein level at 83 nM in the presence of 1.5 Gy irradiation by Western blot analysis relative to control
[18] = molecular target: Serine/threonine-protein kinase Chk2 (Homo sapiens) (UniProt O96017); assay: Inhibition of CPT-11 induced Chk2 phosphorylation in human SW620 cells assessed as fold change in phosphorylated chk2 protein level at 10 nM by SDS-PAGE based Western blot analysis relative to control
[19] = molecular target: T1, Serine-protein kinase ATM; assay: Inhibition of ATM phosphorylation in human SW620 cells with IR-induced DNA damage assessed as fold change in phosphorylated ATM protein level at 3 nM in the presence of 3 Gy irradiation by Western blot analysis relative to control

fold change (FC) [2]: 1.2 | fold change (FC) [6]: 0.64 | fold change (FC) [7]: 2 | fold change (FC) [18]: 0.84
SMILES: C[C@H](c1ccccc1)n1nnc2cnc3ccc(-c4ccc(OCCCN(C)C)nc4)cc3c21
fold change (FC) [1]: 0.77 | fold change (FC) [3]: 0.59 | fold change (FC) [4]: 3.5 | fold change (FC) [5]: 2.3 | fold change (FC) [8]: 0.63 | fold change (FC) [9]: 0.59 | fold change (FC) [10]: 1.4 | fold change (FC) [11]: 0.75 | fold change (FC) [12]: 0.81 | fold change (FC) [13]: 0.79 | fold change (FC) [14]: 0.59 | fold change (FC) [15]: 1.3 | fold change (FC) [16]: 1.2 | fold change (FC) [17]: 0.59 | fold change (FC) [19]: 2.9
